Results: PubChem BioAssay (NCI)
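Cultured in 96-well plates, cells were exposed to test compound for 48 hours across five concentrations. GI50 = concentration required for 50% inhibition of growth. TGI denotes the concentration required for complete inhibition of growth.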

Columns and labels:
Experiment in all cases: NCI anticancer screen, dose series, 48 h; in the data active means GI50 below about 0.43 µM; inactive means the rest
[1] = tested on: 786-0 renal
[2] = tested on: A498 renal
[3] = tested on: A549 NSCLC
[4] = tested on: ACHN renal
[5] = tested on: BT-549 breast
[6] = tested on: CAKI-1 renal
[7] = tested on: COLO 205 colon
[8] = tested on: DU-145 prostate
[9] = tested on: EKVX NSCLC
[10] = tested on: HCT-116 colon
[11] = tested on: HCT-15 colon
[12] = tested on: HOP-62 NSCLC
[13] = tested on: HOP-92 NSCLC
[14] = tested on: HS 578T breast
[15] = tested on: HT29 colon
[16] = tested on: IGROV1 ovarian
[17] = tested on: K-562 leukemia
[18] = tested on: KM12 colon
[19] = tested on: LOX IMVI melanoma
[20] = tested on: M14 melanoma
[21] = tested on: MALME-3M melanoma
[22] = tested on: MCF7 breast
[23] = tested on: MDA-MB-231 breast
[24] = tested on: MDA-MB-435
[25] = tested on: MDA-N
[26] = tested on: NCI-H226 lung
[27] = tested on: NCI-H23 lung
[28] = tested on: NCI-H322M lung
[29] = tested on: NCI-H460 lung
[30] = tested on: NCI-H522 lung
[31] = tested on: NCI/ADR-RES ovarian
[32] = tested on: OVCAR-3 ovarian
[33] = tested on: OVCAR-4 ovarian
[34] = tested on: OVCAR-5 ovarian
[35] = tested on: OVCAR-8 ovarian
[36] = tested on: PC-3 prostate
[37] = tested on: RPMI-8226 leukemia
[38] = tested on: RXF 393 renal
[39] = tested on: SF-268 CNS
[40] = tested on: SF-295 CNS
[41] = tested on: SF-539 CNS
[42] = tested on: SK-MEL-2 melanoma
[43] = tested on: SK-MEL-28 melanoma
[44] = tested on: SK-MEL-5 melanoma
[45] = tested on: SK-OV-3 ovarian
[46] = tested on: SN12C renal
[47] = tested on: SNB-19 CNS
[48] = tested on: SNB-75 CNS
[49] = tested on: SW-620 colon
[50] = tested on: T-47D breast
[51] = tested on: TK-10 renal
[52] = tested on: U251 CNS
[53] = tested on: UACC-257 melanoma
[54] = tested on: UACC-62 melanoma
[55] = tested on: UO-31 renal

NNC(NN)NN.n1nc(-c2nn[nH]n2)n[nH]1
inactive: GI50 [1] > 100 µM | GI50 [2] > 100 µM | GI50 [3] > 100 µM | GI50 [4] > 100 µM | GI50 [5] > 100 µM | GI50 [6] > 100 µM | GI50 [7] > 100 µM | GI50 [8] > 100 µM | GI50 [9] > 100 µM | GI50 [10] > 100 µM | GI50 [11] > 100 µM | GI50 [12] > 100 µM | GI50 [13] > 100 µM | GI50 [14] > 100 µM | GI50 [15] > 100 µM | GI50 [16] > 100 µM | GI50 [17] 56.6 µM | GI50 [18] > 100 µM | GI50 [19] > 100 µM | GI50 [20] > 100 µM | GI50 [21] > 100 µM | GI50 [22] > 100 µM | GI50 [23] > 100 µM | GI50 [24] > 100 µM | GI50 [25] > 100 µM | GI50 [26] > 100 µM | GI50 [27] > 100 µM | GI50 [28] > 100 µM | GI50 [29] > 100 µM | GI50 [30] > 100 µM | GI50 [31] > 100 µM | GI50 [32] > 100 µM | GI50 [33] > 100 µM | GI50 [34] > 100 µM | GI50 [35] > 100 µM | GI50 [36] > 100 µM | GI50 [37] > 100 µM | GI50 [38] > 100 µM | GI50 [39] > 100 µM | GI50 [40] > 100 µM | GI50 [41] > 100 µM | GI50 [42] > 100 µM | GI50 [43] > 100 µM | GI50 [44] > 100 µM | GI50 [45] > 100 µM | GI50 [46] > 100 µM | GI50 [47] > 100 µM | GI50 [48] > 100 µM | GI50 [49] > 100 µM | GI50 [50] > 100 µM | GI50 [51] > 100 µM | GI50 [52] > 100 µM | GI50 [53] > 100 µM | GI50 [54] > 100 µM | GI50 [55] > 100 µM
> 100 µM: TGI [1] | TGI [2] | TGI [3] | TGI [4] | TGI [5] | TGI [6] | TGI [7] | TGI [8] | TGI [9] | TGI [10] | TGI [11] | TGI [12] | TGI [13] | TGI [14] | TGI [15] | TGI [16] | TGI [17] | TGI [18] | TGI [19] | TGI [20] | TGI [21] | TGI [22] | TGI [23] | TGI [24] | TGI [25] | TGI [26] | TGI [27] | TGI [28] | TGI [29] | TGI [30] | TGI [31] | TGI [32] | TGI [33] | TGI [34] | TGI [35] | TGI [36] | TGI [37] | TGI [38] | TGI [39] | TGI [40] | TGI [41] | TGI [42] | TGI [43] | TGI [44] | TGI [45] | TGI [46] | TGI [47] | TGI [48] | TGI [49] | TGI [50] | TGI [51] | TGI [52] | TGI [53] | TGI [54] | TGI [55]
